Measured affinities in a library of Ab-95 light chain variants

Reference: Engelhart et al. 2022, doi:10.1038/s41597-022-01779-4. File: FLAb, binding data.

The target is the same throughout: PDVDLGDISGINAS, from the HR2 region of SARS-CoV-2 spike.

Parent: Ab-95, a human scFv built as VH, a 15-residue (Gly4Ser)3 linker, VL. Only the CDRs of the light chain vary.
VH: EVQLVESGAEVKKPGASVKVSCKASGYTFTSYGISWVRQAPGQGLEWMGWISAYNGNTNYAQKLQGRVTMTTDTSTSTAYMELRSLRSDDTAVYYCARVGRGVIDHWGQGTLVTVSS
VL: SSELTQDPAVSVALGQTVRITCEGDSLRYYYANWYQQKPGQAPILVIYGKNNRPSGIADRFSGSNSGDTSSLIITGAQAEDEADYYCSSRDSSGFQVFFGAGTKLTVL

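The parent was found by panning a naive human phage display library on the peptide. In library AAYL52, one, two or three CDR residues were substituted; doubles and triples were drawn at random. The scFvs were displayed on barcoded MATa yeast, the peptide on MATalpha yeast. The frequency of each diploid, read from paired DNA barcodes, reflects how well the two displayed proteins bind. Each replicate has its own calibration line, from reference interactions of the BCL2 family. Each pool was mated in three replicate cultures.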

Each variant is given by its three light chain CDRs, as the data file delimits them; those of the parent are EGDSLRYYYAN, GKNNRPS, SSRDSSGFQVF.
Scale: log10 of Kd in nM, estimated from mating counts; low values are strong binders.
Replicates are averaged; those with no signal do not enter the mean.
A pair that was not seen in that replicate is written "ND"; this usually means weak binding, but a binder can also be missed.
Empty control strains, which show no peptide, gave a signal in 28% of pairings with library AAYL52; the median was 3.91 and 95% of these signals were weaker than 2.90. No background was subtracted. Also given: how often the same scFv was detected with the empty control strains, with their mean in brackets.
For reference, the parent read 2.31 as the reference entry and 2.25 as a member of this library.

CDR-L1,CDR-L2,CDR-L3,"log10 Kd, replicates","mean, log10 nM",empty controls
EGDSLRYYGAN,GKNNRPS,SSADSSPFQVF,2.99 3.05 2.54,2.86,5 of 9 (3.76)
EGDSLRYYAAN,GKNNIPS,SSRDSSAFQVF,4.66 4.69 4.08,4.48,3 of 9 (3.84)
EGDSLRYYYAN,GKNNRPS,SSRDSSNKQQF,3.46 3.83 2.16,3.15,3 of 9 (4.41)
EGDSLFGYYAN,EKNNRPS,SSRDSSGFQVF,3.35 3.72 2.88,3.32,4 of 9 (3.72)
EGDSLRCSYAN,GKNNRPS,SSTDSSGFQVF,1.74 1.68 1.56,1.66,1 of 9 (4.83)
EVDSLRYYFAN,GKNNRPS,SSRGSSGFQVF,3.55 3.50 3.09,3.38,1 of 9 (5.63)
EGDSLRMMYAN,GKNNRNS,SSRDSSGFQVF,2.00 1.73 1.34,1.69,4 of 9 (4.10)
EEDSLRYYYAH,GKNNRPS,SSRDMSGFQVF,4.27 4.06 ND,4.16,6 of 9 (4.27)
EGDSLRYYYAN,GKQNRPS,PSRDSSGFQVF,2.49 2.87 3.86,3.07,2 of 9 (3.83)
EGDSLRYYYAN,GKENIPS,SSRDSSGFQVF,3.19 3.00 3.58,3.26,5 of 9 (4.38)
CGDSLRYFYAI,GKNNRPS,SSRDSSGFQVF,ND ND 4.13,4.13,1 of 9 (4.25)
EGMSVRYYYAN,GKNNRPS,KSRDSSGFQVF,ND ND ND,ND,0 of 9
EGDSLRMYYAN,GKNNRPS,LSRESSGFQVF,4.01 ND ND,4.01,0 of 9
EGQSLRYYYAN,GKNNRPS,SSRDSSPFQVF,5.48 ND 3.41,4.44,0 of 9
EGDSLRYYYAN,GMNNRPS,SSFDSSGKQVF,ND 4.61 ND,4.61,1 of 9 (4.29)
EGDSLRYYYAN,GKNNRPS,SARDFIGFQVF,4.07 3.50 2.82,3.46,0 of 9
ECDFLRYYYAN,GVNNRPS,SSRDSSGFQVF,5.59 ND ND,5.59,5 of 9 (4.04)
EGDSWRYLDAN,GKNNRPS,SSRDSSGFQVF,2.81 2.51 2.56,2.63,4 of 9 (3.91)
EGDSLVYYYAN,GKNNRPS,SSRDGSGYQVF,2.90 2.61 2.22,2.58,2 of 9 (3.97)
AGDSLRYYYAN,GKEERPS,SSRDSSGFQVF,2.20 1.88 1.77,1.95,4 of 9 (4.71)
EGDSLWMYYAN,GKNNRPS,NSRDSSGFQVF,3.89 2.69 3.56,3.38,5 of 9 (4.21)
EGDSLLGYYAN,GKNNRPS,SSRDSSGFCVF,2.61 2.97 2.92,2.83,4 of 9 (3.77)
QEDSLRYYYAN,GKNNRPS,SSRDSSGQQVF,4.06 ND 3.29,3.67,4 of 9 (4.09)
EGDSLRYYYAN,GRNSRPS,SSRDSSDFQVF,ND ND 3.81,3.81,3 of 9 (3.85)
EADSLRYYYAG,GKNNVPS,SSRDSSGFQVF,2.26 2.20 1.54,2.00,3 of 9 (3.37)
GGDSLRYYYAN,HKNNRPS,SSRFSSGFQVF,3.31 ND ND,3.31,0 of 9
EGDSLRCYYIN,GKNNRGS,SSRDSSGFQVF,ND ND ND,ND,0 of 9
EQDSLRYYYFN,GKNNRPS,SSRDFSGFQVF,4.23 ND 4.10,4.17,0 of 9
EGDSLEYYYAN,GKNNRPS,SSRRSSGFQVF,2.90 3.07 2.52,2.83,4 of 9 (4.17)
EGDSLRYYYAN,GKNNRPS,SSWDSSGFKVV,2.92 2.38 3.02,2.78,2 of 9 (4.83)
IGDKLRYYYAN,GKNNRQS,SSRDSSGFQVF,ND ND ND,ND,0 of 9
EGDSLRYYYAL,GKVNRPS,TSRDSSGFQVF,ND ND 4.22,4.22,2 of 9 (3.99)
EGDSLRYYYAN,GKNNRPA,RSRKSSGFQVF,ND ND ND,ND,3 of 9 (3.81)
VGDSLRKYYAN,GKNNRPD,SSRDSSGFQVF,2.13 2.52 1.45,2.04,0 of 9
EGDSDRYYYVN,GWNNRPS,SSRDSSGFQVF,3.66 3.94 4.10,3.90,4 of 9 (3.51)
QGDSLRYYYAN,GKNNRPS,SRRDSAGFQVF,3.90 ND ND,3.90,5 of 9 (4.30)
EGDSLRYEYHN,GKNQRPS,SSRDSSGFQVF,2.59 2.49 2.06,2.38,0 of 9
EGDSLRIYYAN,GKNNRPC,SVRDSSGFQVF,2.79 3.67 4.42,3.63,4 of 9 (4.15)
WGGSLRYYYAN,GKNARPS,SSRDSSGFQVF,ND 2.35 3.86,3.10,1 of 9 (3.34)
EGDSLRYYYAN,GKNNEPS,SKRDSSGFQSF,4.69 ND ND,4.69,3 of 9 (4.16)